Where two headings read alike, the source gives them in different places.
Assays:
[1] = target: T1, iATPSnFR2.A95A.A119L.HaloTag-JFX650 (L1-VLVG, L2-ICV); cpSFGFP inserted in epsilon subunit of Bacillus subtilis PS3 F0-F1 ATPase; mutations A95A, A119L; SEQ ID N (Bacillus sp. PS3, UniProt P07678); experiment: ATP/nucleotide titration, binding curve fits
T1 construct: E. coli, Ni-NTA purified
Excerpt: (1A) Artistic rendering of iATPSnFR2.HaloTag made with PyMol. The N-terminal fragment (residues 1-109) of the epsilon subunit of ATPase (orange, based on 2E5Y.PDB) is fused to cpSFGFP (green). The C-terminus of cpSFGFP is fused to the residual ATP-binding helix (residues 110-129) of the epsilon subunit (pink), which itself is fused to HaloTag (cyan). “Linkers” are shown as sticks in yellow. ATP is shown as sticks in black. HaloTag fluorophore is shown as sticks in red. (1B) iATPSnFR2.HaloTag-JFX650 affinity variants titrated with ATP. Grey, S29W.A95K (4 μM); orange, A95K (16 μM), yellow, A95A.A119L (530 μM). (1C-1E) Ratio of green (iATPSnFR2) to red (HaloTag-JFX650) fluorescence in fibroblasts transfected with three affinity variants of iATPSnFR2-HaloTag. Grey, S29W.A95K (high affinity); orange, A95K (medium affinity); yellow, A95A.A119L (low affinity). Cells were incubated for 21 minutes in buffer containing 10 mM glucose, and then switched to buffer containing 10 mM 2-deoxyglucose. (1C) Rho° cells. (1D) Parental LMTK cell line. (1E) Parental cell line treated with both 2-deoxyglucose and oligomycin.
Three variants of iATPSnFR2.HaloTag-JFX650 titrated with ATP (black) and ADP (grey), head-to-head. S29W.A95K (left); A95K (center); A95A.A119L (right). Binding curve fits, in μM, for ATP and ADP are S29W.A95K: 4 μM, 400 μM. A95K: 16 μM, 780 μM. A95A.A119L: 530 μM, 5300 μM.
Three variants of iATPSnFR2.HaloTag-JFX650 titrated with ATP and other NTPs, head-to-head. S29W.A95K (left); A95K (center); A95A.A119L (right). ATP (black), CTP (cyan), GTP (grey), TTP (purple). Binding curve fits, in μM, for ATP, CTP, GTP are S29W.A95K: 20 μM, 50 μM, 430 μM. A95K: 30 μM, 100 μM, 1500 μM. A95A.A119L: 750 µM, ˜10 mM, ˜10 mM.
Purified protein was mixed with 1.1 molar equivalents of JFX650 HaloTag Ligand and incubated at room temperature for 1 hour and then at 4° C. overnight. Excess HaloTag Ligand was removed by gel filtration on a PD-10 column (GE Life Sciences) and re-concentrated by ultrafiltration. […]

By UniProt entry, the sequences of proteins in these tests, tags left out.
UniProt P07678, whole entry, stated change not applied: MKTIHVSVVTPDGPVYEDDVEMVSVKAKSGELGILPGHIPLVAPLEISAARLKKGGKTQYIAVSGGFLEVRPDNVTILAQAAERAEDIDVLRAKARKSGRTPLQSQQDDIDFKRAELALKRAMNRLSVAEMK

[2] = target: T2, iATPSnFR2 (L1-VLVG, L2-ICV, A95A, A119L; cpSFGFP inserted in epsilon subunit of Bacillus subtilis PS3 F0-F1 ATPase; SEQ ID NO: 1 / SEQ ID NO: 13) (Bacillus sp. PS3, UniProt P07678); experiment: Fluorescence response to ATP; type: biochemical; conditions: 37° C. and 25° C.
T2 construct: QD to VL at junction, L1-VLVG, L2-ICV; E. coli BL21(DE3)pLysS, Ni-NTA; HaloTag-JFX650 fusion possible
Experimental: ATP titration of iATPSnFR2.A95A.A119L variant at 25° C. (grey) and 37° C. (black). Error bars are s.d. of three technical replicates. Fluorescence was measured in a Cytation 5 plate reader, which has relatively rapid heating.
The sensor shown below was made from (1) insertion of circularly permuted SuperFolder GFP (cpSFGFP; italicized portion of sequence below) into the ATP-binding epsilon subunit of the ATPase from Bacillus subtilis PS 3 (non-italicized portion of sequence below) between amino acids 109 and 110; (2) subsequent mutation of the residues forming the junction between the first half of the APT-binding subunit of the ATPase and the cpSFGFP to VL VG (i.e., the QD residues of the ATP-binding unit were changed to VL, and the SH residues of the cpSFGFP were changed to VG); (3) subsequent addition of residues ICV between the end of the cpSFGFP and residue 110 of the ATP-binding unit; and (4) mutating an amino acid proximal to the ATP binding site, A119, to L. Mutation sites are shown in the sequence below with bolding and double underlining.
All in vitro assays were performed in Mammalian Cell Imaging Buffer unless otherwise noted. iATPSnFR2 equilibrium measurements (affinity, specificity, pH) were performed with 0.2 μM protein in a Tecan Spark fluorimeter with 20 nm bandpass windows and excitation at 485 nm and emission at 535 nm.

Nc1ncnc2c1ncn2[C@@H]1O[C@H](COP(=O)(O)OP(=O)(O)OP(=O)(O)O)[C@@H](O)[C@H]1O [ATP]
Kd ([1]; read-out: affinity for ATP (binding curve fit), FIG. 1B, 5A, 5D): 530 µM
Kd ([1]; read-out: affinity for ATP (binding curve fit, NTP titration), head-to-head with other NTPs, FIG. 5E): 750 µM
Kd ([1]; read-out: affinity for ATP, FIG. 1B and 5A): 530 µM
ΔF/F and Kd for ATP, temperature dependence [2]: almost identical ΔF/F and Kd for ATP at 37 °C and 25 °C
